Ratio Ki data for one compound are collected here from ChEMBL document CHEMBL3085675, “8-(2-Furyl)adenine derivatives as A₂A adenosine receptor ligands” (Eur J Med Chem, 2013).

The species entered for this test is Homo sapiens. In words: Selectivity ratio of Ki for human recombinant adenosine A1 receptor to Ki for human recombinant adenosine A2A receptor.

As to `Cn1c(-c2ccco2)nc2c(N)ncnc21`, the Ratio Ki came out at 8.
